From ChEMBL document CHEMBL6121018, “Targeting JNK3 for Alzheimer's disease: Design and synthesis of novel inhibitors with aryl group diversity utilizing wide pocket” (Eur J Med Chem, 2025)
The source made the active and inactive calls. No cut-off for these calls is given here.

By UniProt entry, the sequences of proteins in these tests, tags left out.
UniProt P08592, whole entry: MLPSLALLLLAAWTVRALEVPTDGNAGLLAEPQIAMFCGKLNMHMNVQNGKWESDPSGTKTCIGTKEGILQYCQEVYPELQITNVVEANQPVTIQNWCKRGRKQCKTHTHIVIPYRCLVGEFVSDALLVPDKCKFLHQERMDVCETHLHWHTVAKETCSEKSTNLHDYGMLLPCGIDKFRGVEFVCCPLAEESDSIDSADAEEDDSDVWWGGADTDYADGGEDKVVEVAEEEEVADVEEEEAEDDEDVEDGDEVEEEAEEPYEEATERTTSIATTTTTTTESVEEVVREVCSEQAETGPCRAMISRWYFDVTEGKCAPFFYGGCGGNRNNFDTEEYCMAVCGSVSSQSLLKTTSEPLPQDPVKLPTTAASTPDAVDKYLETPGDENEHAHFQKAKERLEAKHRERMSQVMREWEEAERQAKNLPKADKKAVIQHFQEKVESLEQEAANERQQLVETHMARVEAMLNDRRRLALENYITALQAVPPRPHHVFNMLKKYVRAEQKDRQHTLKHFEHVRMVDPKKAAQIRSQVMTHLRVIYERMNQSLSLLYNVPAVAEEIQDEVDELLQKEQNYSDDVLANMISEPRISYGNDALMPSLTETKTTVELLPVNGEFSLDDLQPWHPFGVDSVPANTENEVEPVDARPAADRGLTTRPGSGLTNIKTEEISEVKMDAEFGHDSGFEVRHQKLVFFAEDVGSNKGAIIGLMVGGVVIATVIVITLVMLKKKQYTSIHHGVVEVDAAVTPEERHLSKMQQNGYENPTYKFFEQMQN

Molecular target: Amyloid-beta precursor protein (Rattus norvegicus) (UniProt P08592)
Experiment: Inhibition of APP phosphorylation in amyloid beta (1 to 42 residues)-induced Sprague-Dawley rat primary cortical neurons by Western blot analysis
Format: cell-based
Conditions: Primary cortical neuron

Row | Compound | inhibition
1 | CN(C)C(=O)N1CCC[C@H](Nc2nccc(-n3cc(/C=C/c4ccccc4)c(C(N)=O)n3)n2)C1 | Active
2 | NC(=O)c1nn(-c2ccnc(N[C@H]3CCCN(C(=O)C4CC4)C3)n2)cc1/C=C/c1ccccc1 | Active
